The results in this text go back to PubChem BioAssay AID952 (NMMLSC, 2007).

Sequences of proteins named here, by UniProt entry; tags and fusion partners are left off.
UniProt Q92843, whole entry: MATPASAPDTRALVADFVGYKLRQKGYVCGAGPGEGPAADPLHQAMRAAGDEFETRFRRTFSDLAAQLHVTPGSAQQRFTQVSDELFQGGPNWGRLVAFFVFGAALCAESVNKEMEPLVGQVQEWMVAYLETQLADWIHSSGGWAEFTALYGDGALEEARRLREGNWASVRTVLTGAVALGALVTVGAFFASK

The structures appear in SMILES notation. The list shows a part of the results, in another mix than the full data. Some results for these compounds are left out of this collection, so the calls shown say nothing about other tests. Activity calls are given as the source filed them. Rule as the data show it: active = inhibition above about 40%.

The target in this assay is Bcl-2-like protein 2 (Homo sapiens) (UniProt Q92843). The assay is described as follows: Bcl-W/Bim complex disruptors – biochemical, multiplexed, bead-based flow cytometry, primary screen (AID 952).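 Also: 0% = bound tracer without compound and 100% = peptide blocker; higher means less fluorescent Bim peptide bound to Bcl-W beads.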 The conditions noted are these: Bim peptide-Bcl-W binding, at 10 µM, active compounds read high.
For orientation: inhibition means the relative decrease from the control value, in per cent. As for `CCN1CCCC(OC(=O)C2(O)c3ccccc3C=Cc3ccccc32)C1` (centres undefined), the inhibition was inactive: -5%.
For `C=CCN1CCN(CCOC(=O)C(O)(c2ccccc2)c2ccccc2)CC1` the value was inactive: 0%.
For `Cc1ccccc1C(=O)NCC1(N2CCCCC2)CCCCC1` the value was inactive: -2%; for `CN(C)C1CCCC1OC(=O)C(O)(c1ccccc1)c1ccccc1` (centres undefined), inactive: -3%; for `CC(C)N1C(=O)CC2(CCN(CCOC(=O)C(O)(c3ccccc3)c3ccccc3)CC2)C1=O`, inactive: 1%.
For `O=C(NCC1(N2CCCCC2)CCCCC1)c1cc([N+](=O)[O-])ccc1Cl`, the inhibition is inactive: 13%.
The value for `CN(C)c1cccc(C(=O)NCC2(N(C)C)CCCCC2)c1` was inactive: -3%.
The value for `O=C(OC1CN2CCC1CC2)C(CO)(c1ccccc1)c1ccccc1` (centres undefined) was inactive: 0%; that for `COc1cccc(C(=O)NCC2(N3CCCCC3)CCCCC2)c1` was inactive: 0%.
